Test results reported in PubChem BioAssay AID1242 (PCMD, 2008).
This is a selection; strong and weak results do not stand in their true shares. Some structures show a salt or complex split into parts, the way the source records it. Calls of active or inactive are those of the source.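 How the source made its calls: active means inhibition above 30.3% in the primary screen of four-compound pools, then above 30% when the compound was retested; inconclusive means passed the primary limit but could not be retested; inactive means the rest.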

Assay: clotrimazole potentiators killing C. albicans biofilm, primary screen, 4-compound mixtures (AID 1242);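 further: compounds exposed to preformed 24 h biofilms for 48 h; 0% = untreated biofilm control and 100% = clotrimazole plus chlorhexidine kill blank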
Settings: C. albicans biofilm persisters + clotrimazole, fluorescence viability; primary screen in compound mixtures of four per well; at 7.6 µM; stronger effect = higher value
With CCNC(=S)/N=C(\N)N[N+](=O)[O-] the inhibition was inactive: 8.97%.
With O=C(NC1CCS(=O)(=O)C1)NP(=S)(Oc1ccccc1)Oc1ccccc1 (stereo not given) the inhibition was inactive: 19.5%.
In the case of Cc1ccc(NP(=O)(Oc2cccc(C)c2)Oc2cccc(C)c2)nc1, the inhibition was inactive: 7.51%.
For c1ccc(-c2nn[nH]n2)c(-c2nn[nH]n2)c1, the inhibition was inactive: 20.1%.
For CCOC(=O)c1ccc(NP(C)(=O)Oc2ccc(F)cc2)cc1 (stereo not given), the inhibition was inactive: 18%.
With COc1ccc(OP(C)(=O)Nc2ccc(SC(F)(F)F)cc2)cc1 (stereo not given) the inhibition was inactive: 5.99%.
In the case of CC(=O)NC(SC(=S)N(CC(C)C)CC(C)C)C(Cl)(Cl)Cl (stereo not given), the inhibition was inactive: 10.9%.
In the case of Cc1ccc(OP(=O)(Nc2ccccn2)Oc2ccc(C)cc2)cc1, the inhibition was inactive: -1.41%.
With CCN(CC)CCCOC(=O)C(O)(c1ccccc1)C1CCCCC1 (stereo not given) the inhibition was inactive: 15.8%.
In the case of O=c1c2cc([N+](=O)[O-])ccc2[nH]c2c([N+](=O)[O-])cc([N+](=O)[O-])cc12, the inhibition was inactive: 24%.
For CCCCCOc1ccc(NP(C)(=O)Oc2ccc(Cl)cc2Cl)cc1 (stereo not given), the inhibition was inactive: 3.32%.
For CN(C)C(=O)Oc1noc2ccccc12, the inhibition was inactive: 30.9%.
For Cc1ccccc1OP(=O)(Nc1ccccn1)Oc1ccccc1C, the inhibition was inactive: 22.6%.
In the case of CCOc1ccc(C2=NCC(CBr)S2)cc1 (stereo not given), the inhibition was inactive: 8.53%.
For CC(C)c1ccc(OP(C)(=O)Nc2ccc(SC(F)(F)F)cc2)cc1 (stereo not given), the inhibition was inactive: 6.71%.
With CC(C)(C)C(=O)NC(Sc1ccccc1)C(Cl)(Cl)Cl (stereo not given) the inhibition was inactive: 11.8%.
For O=C(OC1CN2CCC1CC2)c1ccc([N+](=O)[O-])cc1 (stereo not given), the inhibition was inactive: 15.1%.
In the case of C[C@H]1OP(=O)(Oc2ccccc2)C[C@@H]2O[C@@H]21 (stereo not given in full), the inhibition was inactive: 19.8%.
For C[C@@H]1C=CCP(=O)(Oc2ccccc2)O1 (stereo not given in full), the inhibition was inactive: 16.3%.
In the case of O=C(OCCN1CCN(CCOCc2ccccc2)CC1)C(O)(c1ccccc1)c1ccccc1, the inhibition was inactive: 13.1%.
For CC(=O)Nc1ccc(Oc2c([N+](=O)[O-])cc([N+](=O)[O-])cc2[N+](=O)[O-])cc1, the inhibition was inactive: 11.9%.
With CC(=O)Nc1ccc([As](=O)(O)O)c(O)c1 the inhibition was inactive: 16.9%.
With COc1ccc2c(c1O)-c1c(O)c(OC)cc3c1[C@H](C2)[N+](C)(C)CC3.O=[N+]([O-])c1cc([N+](=O)[O-])c([O-])c([N+](=O)[O-])c1[O-] the inhibition was inactive: 9.65%.
With CP(=O)(Nc1ccc(SC(F)(F)F)cc1)Oc1ccc(F)cc1 (stereo not given) the inhibition was inactive: 29.7%.
For CC(C)C(=O)NC(Sc1ccccc1)C(Cl)(Cl)Cl (stereo not given), the inhibition was inactive: 1.17%.
In the case of O=P(Nc1ccccn1)(c1ccc(Br)cc1)c1ccc(Br)cc1, the inhibition was inactive: 17%.
For C[C@H]1OP(=O)(Oc2ccccc2)[C@H](O)[C@H](O)[C@H]1N=[N+]=[N-] (stereo not given in full), the inhibition was inactive: 19.1%.
In the case of O=P(Nc1nc2ccccc2s1)(c1ccccc1)c1ccccc1, the inhibition was inactive: 20.6%.
For COc1ccc(NP(C)(=O)Oc2ccccc2OC)cc1 (stereo not given), the inhibition was inactive: 22.2%.
For CC(=O)NC(SC(=S)N(C)C)C(Cl)(Cl)Cl (stereo not given), the inhibition was inactive: 12.3%.
For O=[N+]([O-])c1ccc(OP2(=O)COCCO2)cc1 (stereo not given), the inhibition was inactive: 18.4%.
For O=[N+]([O-])c1ncn(CCn2cnc([N+](=O)[O-])n2)n1, the inhibition was inactive: 3.62%.
In the case of Cc1cc(-c2cccc3ccccc23)c(C)cn1.O=[N+]([O-])c1cc([N+](=O)[O-])c(O)c([N+](=O)[O-])c1, the inhibition was inactive: 13.9%.
For O=[N+]([O-])c1cc([N+](=O)[O-])c(NCC2CCS(=O)(=O)C2)c([N+](=O)[O-])c1 (stereo not given), the inhibition was inactive: 9.8%.
With O=[As](O)(c1ccccc1)c1ccc(O)cc1 the inhibition was inactive: 19.3%.
For C(Cc1nn[nH]n1)Cc1nn[nH]n1, the inhibition was inactive: 13%.
For Nc1ccc([As](=O)(O)c2ccc([N+](=O)[O-])cc2)cc1, the inhibition was inactive: 11.1%.
For O=C(Nc1cc([As](=O)(O)O)ccc1O)c1ccccc1, the inhibition was inactive: 11.9%.
For CCOC(=O)c1ccc(NP(C)(=O)Oc2ccc(Cl)cc2)cc1 (stereo not given), the inhibition was inactive: 9.76%.
For CC(C)(C)C(=O)NC(Sc1ccncn1)C(Cl)(Cl)Cl (stereo not given), the inhibition was inactive: 14.8%.
For O=[N+]([O-])c1ncn(CCn2ncnc2[N+](=O)[O-])n1, the inhibition was inactive: 15.3%.
With O=[N+]([O-])c1cccc(NC2=NCC(CBr)S2)c1 (stereo not given) the inhibition was inactive: 12.6%.
In the case of O=C(O)CNc1ccc([As](=O)(O)O)cc1, the inhibition was inactive: 9.72%.
With COc1ccc(OP(C)(=O)Nc2ccc(Br)cc2)cc1 (stereo not given) the inhibition was inactive: 9.21%.
For COc1ccc(C2=NCC(CBr)S2)cc1 (stereo not given), the inhibition was inactive: 15.4%.
For O=C(OCCCN1CCCC1)C(O)(c1ccccc1)C1CCCCC1 (stereo not given), the inhibition was inactive: 6.48%.
For CCc1ccc(OP(C)(=O)Nc2cccnc2)cc1 (stereo not given), the inhibition was inactive: 9.99%.
For O=[N+]([O-])c1cc([N+](=O)[O-])c(CCNc2ccccc2)c([N+](=O)[O-])c1, the inhibition was inactive: 19.8%.
For Cc1ccc(NP(=O)(Oc2ccccc2)Oc2ccccc2)nc1, the inhibition was inactive: 9.16%.
With C[N+]1=C2C=CC=CC=C2SC12C([N+](=O)[O-])=CC([N+](=O)[O-])=C[C-]2[N+](=O)[O-] (stereo not given) the inhibition was inactive: 17.4%.
In the case of COc1ccccc1OP(C)(=O)Nc1ccccc1Br (stereo not given), the inhibition was inactive: 12.8%.
With Nc1ccc([As](=O)(O)c2ccc(N)cc2)cc1 the inhibition was inactive: -1.23%.
For CCN(/C(=N/P(=O)(N1CCOCC1)N1CCOCC1)N1CCOCC1)c1ccc(OC)cc1, the inhibition was inactive: 20.7%.
For CN(C)C(=O)OCCc1n(C)cc[n+]1C, the inhibition was inactive: 10.6%.
In the case of CN(C)C(=O)c1c([N+](=O)[O-])cc([N+](=O)[O-])cc1[N+](=O)[O-], the inhibition was inactive: 10.6%.
With CC(C)=N/N=C(\N)N[N+](=O)[O-] the inhibition was inactive: 14.9%.
In the case of NC(=O)c1cc([N+](=O)[O-])cc([N+](=O)[O-])c1N, the inhibition was inactive: 5.53%.
For Cc1ccc(N/C(=N/P(=O)(N2CCOCC2)N2CCOCC2)N2CCOCC2)cc1, the inhibition was inactive: 1.79%.
With COc1ccccc1OP(C)(=O)Nc1ccc(Br)cc1 (stereo not given) the inhibition was inactive: 22%.
In the case of Cc1ccc(OP(=O)(Nc2nccs2)Oc2ccc(C)cc2)cc1, the inhibition was inactive: 30.6%.
For COc1ccccc1OP(=O)(Nc1ccc(C)cn1)Oc1ccccc1OC, the inhibition was inactive: -6.9%.
With CN1CCCC(OC(=O)C(c2ccccc2)c2ccccc2)C1 (stereo not given) the inhibition was inactive: -9.95%.
With Clc1ccc(Cl)c(NC2=NCC(CBr)S2)c1 (stereo not given) the inhibition was inactive: -0.69%.
With Nc1cc(N)c2nonc2c1[N+](=O)[O-] the inhibition was inactive: 18.8%.
For O=[N+]([O-])c1cc([N+](=O)[O-])c(Nc2ccccn2)c([N+](=O)[O-])c1, the inhibition was inactive: 32.1%.
In the case of O=C(NC(Sc1ccncn1)C(Cl)(Cl)Cl)c1ccccc1 (stereo not given), the inhibition was inactive: 13.5%.
For CC(=O)Nc1ccc([As](=O)(O)O)cc1, the inhibition was inactive: 17.9%.
With O=C(O)c1ccccc1[As](=O)(O)O the inhibition was inactive: -4.98%.
For O=P(Nc1nc2ccc(Cl)cc2s1)(c1ccccc1)c1ccccc1, the inhibition was inactive: 18.5%.
In the case of Cc1cc(C)cc(OP(C)(=O)Nc2cccc(C(F)(F)F)c2)c1 (stereo not given), the inhibition was inactive: 20%.
For Cc1ccc(NP(=O)(Oc2ccccc2F)Oc2ccccc2F)nc1, the inhibition was inactive: 24.3%.
For Cc1cc(SC(NC(=O)c2ccc(F)cc2)C(Cl)(Cl)Cl)ncn1 (stereo not given), the inhibition was inactive: 12.7%.
With CCOP(=O)(Nc1ccccc1)OCC the inhibition was inactive: 11.9%.
For COc1ccc(OP(C)(=O)Nc2ccccc2Br)cc1 (stereo not given), the inhibition was inactive: 14.1%.
With CCN(N=Nc1nonc1N)c1nonc1N the inhibition was inactive: 13.2%.
In the case of CP(=O)(Nc1ccc(Cl)cc1Cl)Oc1ccccc1 (stereo not given), the inhibition was inactive: 6.8%.
In the case of CP(=O)(OCCOc1ccccc1)OCCOc1ccccc1, the inhibition was inactive: 17.2%.
In the case of Nc1cccc2ccc([As](=O)(O)O)cc12, the inhibition was inactive: 12.9%.
With C[As](=O)(O)c1cccc(C(=O)O)c1 the inhibition was inactive: 2.88%.
In the case of O=[As](O)(c1ccc(O)cc1)c1ccccc1O, the inhibition was inactive: 8.2%.
In the case of O=[N+]([O-])c1ccc2c(c1)C=Nc1ccccc1O2, the inhibition was inactive: 6.32%.
In the case of Cc1ccc2nc3c(c(C)c2c1)CC(C(Cl)Cl)S3 (stereo not given), the inhibition was inactive: 6.07%.
For Cc1cccc(C)c1OP(C)(N)=O (stereo not given), the inhibition was inactive: 12.4%.
For Cc1ccc(OP(=O)(Nc2ccc([N+](=O)[O-])cn2)Oc2ccc(C)cc2)cc1, the inhibition was inactive: 20.2%.
In the case of CC(C)(C)c1ccc(OP(C)(=O)Nc2ccc(SC(F)(F)F)cc2)cc1 (stereo not given), the inhibition was inactive: 5.57%.
In the case of CC(C)c1ccc(OP(=O)(Nc2ccccn2)Oc2ccccc2F)cc1 (stereo not given), the inhibition was inactive: 26.9%.
In the case of ClCCSc1nnc(-c2cccnc2)o1, the inhibition was inactive: 19.8%.
For CCOC(=O)c1ccc(NP(C)(=O)Oc2ccccc2)cc1 (stereo not given), the inhibition was inactive: 11.7%.
In the case of Cc1cc(C)cc(OP(C)(N)=O)c1 (stereo not given), the inhibition was inactive: 8.44%.
With O=[N+]([O-])c1cc([N+](=O)[O-])c(-c2ccn[nH]2)s1 the inhibition was inactive: 13.6%.
In the case of COc1ccccc1OP(C)(=O)Nc1cc(Cl)ccc1C (stereo not given), the inhibition was inactive: 15%.
In the case of CC(C)NC(=O)NP(=O)(Oc1ccccc1)Oc1ccccc1, the inhibition was inactive: 10.5%.
For Cc1cc(=O)[nH]c(N[N+](=O)[O-])n1, the inhibition was inactive: 18%.
For CCN(CC)CCCOC(=O)C(O)(c1ccccc1)c1ccccc1, the inhibition was inactive: 24.3%.
With Cc1c2c(nc3ccccc13)SC(C(Cl)Cl)C2 (stereo not given) the inhibition was inactive: 27.8%.
For COc1cc(I)ccc1[As](=O)(O)O, the inhibition was inactive: 8.68%.
With COc1ccc2nc(NP(=O)(c3ccccc3)c3ccccc3)sc2c1 the inhibition was inactive: 14.9%.
In the case of COc1ccc(N/C(=N/P(=O)(N2CCOCC2)N2CCOCC2)N2CCOCC2)cc1, the inhibition was inactive: 9.25%.
With CP(=O)(Oc1ccccc1)OC(c1ccccc1)C(F)(F)F (stereo not given) the inhibition was inactive: 7.72%.
In the case of Cc1cccc(C)c1OP(C)(=O)Nc1ccc(SC(F)(F)F)cc1 (stereo not given), the inhibition was inactive: 9.7%.
